# Antibody variant affinities, Ab-14 light chain, assay B

Source: Li et al. 2023 (doi:10.1038/s41467-023-39022-2), MIT Lincoln Laboratory and A-Alpha Bio; data file from the FLAb repository.

Binding partner: SARS-CoV-2 spike HR2 peptide, sequence PDVDLGDISGINAS.

Ab-14 is the parent antibody, in scFv form: VH, then three GGGGS repeats, then VL. The heavy chain is unchanged in all variants.
VH: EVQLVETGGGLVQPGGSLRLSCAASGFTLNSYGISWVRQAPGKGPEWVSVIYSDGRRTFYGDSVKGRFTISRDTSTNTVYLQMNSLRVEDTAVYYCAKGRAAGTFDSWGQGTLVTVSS
VL: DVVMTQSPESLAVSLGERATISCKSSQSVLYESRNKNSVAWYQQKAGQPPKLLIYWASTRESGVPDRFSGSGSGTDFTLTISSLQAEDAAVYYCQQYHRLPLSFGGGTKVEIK

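Phage display of a naive human antibody library on the peptide gave the parent. Designed CDR sequences, proposed from the first random library and measured here. Several design methods are mixed in this list. The scFvs were displayed on barcoded MATa yeast, the peptide on MATalpha yeast. After mating in shaken culture at 30 °C for 16 h, diploids were selected and their barcode pairs sequenced. Read counts were normalised to the haploid input and turned into Kd by a linear fit to BCL2-family pairs of known affinity, for each replicate. Mating was done six times.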

Each variant is given by its three light chain CDRs, as the data file delimits them; those of the parent are KSSQSVLYESRNKNSVA, WASTRES, QQYHRLPLS. Affinities are written as log10 Kd with Kd in nM; a lower number is a better binder. A mean of the replicates is given; it leaves out those without a signal. "nd" marks a missing value. The strain was present, yet no cells mated with the target were sequenced in any replicate, which points to weak or no binding. The list is sorted by this average, lowest first, undetected variants last.

CDR-L1	CDR-L2	CDR-L3	mean, log10 nM	detected
KLSQSVLYESRNWNSVA	NASTRMS	QQYHRLPLS	-0.66	6/6
KLMQLGDYESRNKNSVA	QASQREQ	QQYHRLPLS	-0.46	6/6
KIPQGVLYESRNKNSVA	GASVRES	QQYHRLPLS	-0.38	6/6
KLEQSWLYESRNKNSVA	EASTRES	QQYHRLPLS	-0.36	6/6
KVDSAVNYGQRNKNSVA	DASQRES	QQYHRLPLS	-0.35	6/6
KFSQSELYESRNKNSVA	NASQREE	QQYHRLPLS	-0.27	6/6
KSSQSELTESRNKNSVA	DASTRES	QQYWRLPLS	-0.20	6/6
KMQQSWLYESRNKNSVA	NASTRMS	QQYHRLPLS	-0.18	6/6
KLSQSVLYEQRNKNSVA	SASTRMS	QQYHRLPLS	-0.17	6/6
KSSISYLEESRNKNSVA	EASTREW	QQYHRLPLS	-0.17	6/6
RVSSELMAGEIHYNAIA	NTKVLEY	QQYMRLPLG	-0.11	6/6
KSSTSQEYEDRNKNSVA	HASTREE	QQYHRLPLS	-0.07	6/6
KLEQSVLYESRNKNSVA	NASQRES	QQYHRLPLS	-0.03	6/6
KVNGLMNIEQMNSKSVA	QSSTREN	QQYHRLPLS	-0.02	6/6
KVYQSWLYESRNKNSVA	NASQRES	QQYHRLPLS	-0.01	6/6
KLSQSFLYEQRNKNSVA	SASTRES	QQYHRLPLS	0.00	6/6
KVYQSHLYESRNDNNVA	NASYRES	QQYHRLPLS	0.01	6/6
KMSQSVLMELRNKNSVA	DASLRES	QQYHRLPLS	0.02	6/6
KLEISVMQWSRNKNSVA	NASTRLV	QQYHRLPLS	0.04	6/6
HISSMDMHDGGIIHSIA	DTGITER	QQYMRLPLI	0.08	6/6
KMMQSLLYESRNKNSVA	EASTRES	QQYHRLPLS	0.09	6/6
KLSWSVLYESNNKNSVA	HASTRED	QQYHRLPLS	0.23	6/6
NISHFMDVTAKNINNVA	EQTTREK	QQYHHLPLS	0.25	6/6
KSSISYLYESRNKNSVA	EASTREQ	QQYHRLPLM	0.31	6/6
KISMLQRYESQNKDSIA	EMSRREN	QQYHRLPLS	0.34	6/6
KSSQSVDGESRNKNSVA	DASTRES	QQYHRLPLS	0.37	6/6
KSSISYLYESRNKNSVA	AASIRES	QQYHRLPLS	0.43	6/6
KSSIGVLYESRNKNSVA	NGSTRES	QQYHRLPLS	0.45	6/6
KSSQSWLYESRNFGSVA	GASTRES	QQYHRLPLS	0.57	6/6
KISNSVLYESRNKNSVA	WASTRES	QQYHRLPLA	0.62	6/6
KLSMLWLGLSRNHNSVA	SASTRES	QQYHRLPLS	0.74	6/6
KLMQSVEQEERNKNSVA	HASLREV	QAYHRLPLS	0.74	6/6
KSSQSVLYESRNKNSVA	QASTREV	QQYHRLPLG	0.81	6/6
QYSMNLEIYDQEQGNVA	HGEMRTE	QQYHKLPLS	0.89	6/6
KLSWSMLYESRNKNSVA	DASTRES	QQYHRLPLS	0.99	6/6
KFEVSMLYESRNGNSVA	NASTRSS	QQYHRLPLS	1.12	6/6
KLVNSTLYESRQKNSVA	TASTRES	QQYHRLPLS	1.21	6/6
KLRQSTAYLSENKNSVA	ELTTRGS	QQYFRLPLS	1.22	6/6
KSSQSVLYESRNKNSVA	NASTRES	DQYHRLPLS	1.34	6/6
TLYGLSVSMSKNVNSVA	EMTTRED	QQYDRLPLV	1.38	6/6
KNSQSWTYEQRNKNSVA	RASTRES	QQYHRLPLS	1.43	6/6
KLQWSNLYWSRNKNSVA	QASTRLM	QQYHRLPLS	1.45	6/6
KMSQSVRYESRNGNSVA	QASTREF	QQKHRLPLS	1.58	3/6
MISQLWNMGQFAINSVA	QASQRNA	QQYDRLPLM	1.65	4/6
KLSWKSLGFENEWMAIA	NTKERNA	QQYARLPLS	1.72	6/6
KQSMSVMMGDRNKNSVA	SAHKRES	QQYHRLPLS	2.08	4/6
KLLQEVTGHTRNRNSVA	HNSTRED	QQYDRLPLS	2.33	1/6
KLSQSVLYESRHKNSVA	GASKRES	QQYHRFPLS	2.87	5/6
IVSQMMLWGWHAKNSIA	EAQTRLN	QQYDRLPLF	nd	0/6
KSEQSCLYESRDKNSVA	WASTRES	QQYHRLALS	nd	0/6
TLTQVTMVEQYNKNSVA	QASTRLE	QDYHRLPLS	nd	0/6
KSSQSVLYESRNINSVA	WASTRES	QQYHRLPLS	nd	0/6
KSSQSVLYESRNKNSVA	KASTRES	QKPHRLPLS	nd	0/6
KSSQYVLYPQRNKNSVA	WASTRES	QQYHRLPLS	nd	0/6

8 of these entries, quoted again:

CDR-L1	CDR-L2	CDR-L3	mean, log10 nM	detected
TLTQVTMVEQYNKNSVA	QASTRLE	QDYHRLPLS	nd	0/6
KIPQGVLYESRNKNSVA	GASVRES	QQYHRLPLS	-0.38	6/6
KLSWSVLYESNNKNSVA	HASTRED	QQYHRLPLS	0.23	6/6
KSSISYLEESRNKNSVA	EASTREW	QQYHRLPLS	-0.17	6/6
KLRQSTAYLSENKNSVA	ELTTRGS	QQYFRLPLS	1.22	6/6
KLSQSVLYESRNWNSVA	NASTRMS	QQYHRLPLS	-0.66	6/6
IVSQMMLWGWHAKNSIA	EAQTRLN	QQYDRLPLF	nd	0/6
QYSMNLEIYDQEQGNVA	HGEMRTE	QQYHKLPLS	0.89	6/6

Of ten entries with the parent sequence, four were seen in most replicates (averages 0.34 to 2.37), three in one and three in none, so single entries are noisy. The authors' rule: three or more of the six replicates give a measured affinity, fewer mean a poor binder. A sequence measured in both rounds can read differently, since the two assays cover different ranges. Nonspecific signal, from three strains lacking the peptide, appeared in 4% of pairings of all light chain designs, centred on 2.64 (5% of these signals below 1.59); values are not corrected for it.